Values of other authors in patent US8778643B2, “Methods for increasing lipid levels and producing triacylglycerols in algae” (priority 2012, dated 2014).

Protein sequences, listed by entry. Tags and fused reporters are not part of them. Chains listed by the source or under a name are the forms on record and can include a tag or linker.
UniProt P30305, other isoform, or with tags, fused parts or gaps: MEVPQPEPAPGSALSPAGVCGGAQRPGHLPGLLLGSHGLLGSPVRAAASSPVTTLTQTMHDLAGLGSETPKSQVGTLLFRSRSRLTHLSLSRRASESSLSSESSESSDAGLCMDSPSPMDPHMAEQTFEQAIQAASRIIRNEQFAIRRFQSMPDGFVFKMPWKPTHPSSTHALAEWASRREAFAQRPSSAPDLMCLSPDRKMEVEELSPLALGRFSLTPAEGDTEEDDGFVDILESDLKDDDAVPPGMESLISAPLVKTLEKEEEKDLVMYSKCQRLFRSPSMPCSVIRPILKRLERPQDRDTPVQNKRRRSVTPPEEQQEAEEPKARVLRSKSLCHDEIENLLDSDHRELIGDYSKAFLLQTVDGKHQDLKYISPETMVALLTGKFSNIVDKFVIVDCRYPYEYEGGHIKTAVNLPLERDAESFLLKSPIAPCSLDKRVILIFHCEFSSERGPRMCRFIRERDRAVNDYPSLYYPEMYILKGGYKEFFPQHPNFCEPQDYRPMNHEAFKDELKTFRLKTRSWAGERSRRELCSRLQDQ

Tests used:
CDC25 phosphatase 25B3 = CDC25 phosphatase 25B3 (Homo sapiens, UniProt P30305); details: cited from earlier work
CDC25 phosphatase 25B2 = CDC25 phosphatase 25B2 (Homo sapiens, UniProt P30305); details: cited from earlier work

Substance: 6-Chloro-7-(2-morpholin-4-yl-ethylamino)-quinoline-5,8-dione [CDC25 Phosphatase Inhibitor I]
- IC50 (CDC25 phosphatase 25B3): 6.3 µM
- IC50 (CDC25 phosphatase 25B2): 3.9 µM
